## Antibody variant affinities, Ab-14 heavy chain, assay 1

From the AlphaSeq antibody data of Engelhart et al. 2022 (doi:10.1038/s41597-022-01779-4), copy in the FLAb collection.

Target: peptide PDVDLGDISGINAS, taken from heptad repeat 2 (HR2) of SARS-CoV-2 spike.

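The starting antibody came from a phage panning campaign against this peptide. AAYL49 was designed without a model: most single CDR substitutions and a random sample of double and triple ones. The assay is AlphaSeq: two haploid yeast populations carry antibody and antigen on their surface. Mating (16 h, 30 °C) was followed by selection of diploids and sequencing of their barcodes. Each replicate has its own calibration line, from reference interactions of the BCL2 family. Mating was done three times.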

The variants keep the light chain, the linker and the frameworks of Ab-14 (scFv order VH, the linker GGGGSGGGGSGGGGS, VL).
VH: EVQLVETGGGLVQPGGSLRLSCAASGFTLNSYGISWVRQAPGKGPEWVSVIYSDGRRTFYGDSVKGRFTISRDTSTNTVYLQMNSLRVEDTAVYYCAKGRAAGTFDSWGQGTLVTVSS
VL: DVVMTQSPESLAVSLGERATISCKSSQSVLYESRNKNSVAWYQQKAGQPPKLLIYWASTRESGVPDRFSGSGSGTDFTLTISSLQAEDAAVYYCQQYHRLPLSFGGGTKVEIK

Changes read parent residue, position, new residue, counted from the first residue of the VH shown.
This list gathers variants with a substitution at G103 (VH, numbered from residue 1).
Each Kd is an estimate from the mating assay, the geometric mean of the replicates in which the pair was seen; lower is stronger.
"nd" marks a missing value. The strain was present, yet no cells mated with the target were sequenced in any replicate, which points to weak or no binding.
Empty control strains, which show no peptide, gave a signal in 15% of pairings with library AAYL49; the median was 11 µM and 95% of these signals were weaker than 680 nM. No background was subtracted.
In this assay the parent's reference entry averaged 4.4 nM; its copy inside this library read 13 µM (one replicate of three).

With S35P+G61D+G103Q the result was nd (0 of 3 replicates).
With S31V+S35K+G103P the result was 1.7 µM (2 of 3 replicates).
With G103F+F105D the result was nd (0 of 3 replicates).
With G33F+V50Q+G103A the result was 16 µM (3 of 3 replicates).
With G61A+R100F+G103Y the result was 930 nM (2 of 3 replicates).
With V50H+V64M+G103T the result was nd (0 of 3 replicates).
With S53W+V64Y+G103K the result was nd (0 of 3 replicates).
With S63W+A101V+G103N the result was 190 µM (2 of 3 replicates).
With R57E+S63D+G103I the result was 93 µM (3 of 3 replicates).
With G33V+D54F+G103D the result was nd (0 of 3 replicates).
With I51K+A101E+G103H the result was nd (0 of 3 replicates).
With D54N+G103A+S107Y the result was 20 µM (1 of 3 replicates).
With N30S+G103T+D106N the result was 9.3 nM (3 of 3 replicates).
With G26N+R100A+G103M the result was nd (0 of 3 replicates).
With S31P+G103E the result was nd (0 of 3 replicates).
With G26P+L29D+G103D the result was 3.0 µM (1 of 3 replicates).
With I34A+G103N+F105I the result was nd (0 of 3 replicates).
With Y52N+G103R+D106I the result was nd (0 of 3 replicates).
With I34C+G103A the result was nd (0 of 3 replicates).
With G103M+S107F the result was nd (0 of 3 replicates).
With R100H+G103P+S107K the result was 4.7 nM (3 of 3 replicates).
With F27H+T58S+G103K the result was 14 µM (1 of 3 replicates).
With F27Q+S63P+G103Q the result was nd (0 of 3 replicates).
With G103Y the result was 4.4 µM (2 of 3 replicates).
With S35P+G103F+F105Q the result was nd (0 of 3 replicates).
With L29K+G55W+G103C the result was nd (0 of 3 replicates).
With G103K the result was 13 nM (3 of 3 replicates).
With R56G+F59E+G103N the result was 10 µM (1 of 3 replicates).
With R100W+G103W+D106E the result was 9.8 nM (3 of 3 replicates).
With I34C+G61Q+G103D the result was 3.1 µM (1 of 3 replicates).
With S31P+S63P+G103S the result was nd (0 of 3 replicates).
With N30H+D62C+G103A the result was nd (0 of 3 replicates).
With T28R+F59H+G103W the result was 72 µM (2 of 3 replicates).
With S63Q+G103E+F105P the result was 7.9 µM (1 of 3 replicates).
With I51T+S63F+G103I the result was nd (0 of 3 replicates).
With K65H+G103W the result was nd (0 of 3 replicates).
With G103R the result was 39 nM (3 of 3 replicates).
With T58W+G99T+G103D the result was 62 µM (1 of 3 replicates).
With A101T+G103D+F105V the result was nd (0 of 3 replicates).
With G103T+T104M the result was nd (0 of 3 replicates).
With Y52H+A102M+G103W the result was nd (0 of 3 replicates).
With I51E+G103W+S107F the result was 4.2 µM (2 of 3 replicates).
With S31Q+G103D the result was 1.3 nM (3 of 3 replicates).
With K65Q+G103L+S107C the result was nd (0 of 3 replicates).
With S31A+Y32P+G103I the result was nd (0 of 3 replicates).

Repeated from above, the 6 best binders with a signal in all replicates:

changes,Kd,replicates with signal
S31Q+G103D,1.3 nM,3/3
R100H+G103P+S107K,4.7 nM,3/3
N30S+G103T+D106N,9.3 nM,3/3
R100W+G103W+D106E,9.8 nM,3/3
G103K,13 nM,3/3
G103R,39 nM,3/3